# In US20080182798A1 (published 2008):
# Experiment: Testing the solubility of salts of Ile-Thia in distilled water
# Type: physicochemical
# Conditions: H2Odist., visual
substance,measurement,value
isoleucyl thiazolidide tartrate,Solubility: concentration at complete dissolution,17.3%
isoleucyl thiazolidide phosphate,Solubility: concentration at complete dissolution,3.87%
isoleucyl thiazolidide hydrochloride,Solubility: concentration at complete dissolution,16.1%
